{
  "source": "patent US5562894A",
  "about": "“Amino-acyl-type and catecholamine-type contrast agents for MRI” (Regents of the University of California, priority 1993, dated 1996)",
  "origin": "cited, not measured here",
  "settings": "in vivo; cited from earlier work",
  "data": [
    {"substance": "Iron-dextran", "values": [
      {"measurement": "plasma half-life", "value": 12, "unit": "h"}
    ]}
  ]
}
